Antibody variant affinities, Ab-14 heavy chain, assay B

Source: Li et al. 2023 (doi:10.1038/s41467-023-39022-2), MIT Lincoln Laboratory and A-Alpha Bio; data file from the FLAb repository.

All variants were tested on one target, the spike HR2 peptide PDVDLGDISGINAS (SARS-CoV-2).

Each scFv is VH, a (GGGGS)3 linker, VL, as in the parent Ab-14, and differs from it in the CDRs of the heavy chain only.
VH: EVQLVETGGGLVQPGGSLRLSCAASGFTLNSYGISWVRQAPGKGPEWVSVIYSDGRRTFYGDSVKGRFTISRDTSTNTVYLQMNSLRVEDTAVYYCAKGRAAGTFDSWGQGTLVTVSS
VL: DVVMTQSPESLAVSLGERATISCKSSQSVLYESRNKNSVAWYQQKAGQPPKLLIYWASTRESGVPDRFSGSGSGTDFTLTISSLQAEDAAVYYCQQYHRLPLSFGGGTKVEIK

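Phage display of a naive human antibody library on the peptide gave the parent. Designed CDR sequences, proposed from the first random library and measured here. Group labels follow the data file (Ctrl: baseline library sampled from a position-specific scoring matrix, with some repeated check sequences; GPLM: also part of the Gaussian process libraries; Gen: genetic algorithm; Gibbs: Gibbs sampling; a sequence that several methods proposed may carry one label only). The scFvs were displayed on barcoded MATa yeast, the peptide on MATalpha yeast. The frequency of each diploid, read from paired DNA barcodes, reflects how well the two displayed proteins bind. The ratio of observed to expected reads was calibrated, replicate by replicate, on BCL2-family standards whose Kd was known from biolayer interferometry. The assay was run in six technical replicates.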

Substitutions are numbered in sequence along the VH above, starting at 1 (not Kabat). Numbers give log10(Kd / nM), so 0 is 1 nM and 3 is 1 µM. Smaller is tighter. The mean shown is taken over the replicates in which the pair was detected. An entry "ND" has no value in the source: the pair was not observed among the diploids in that replicate. This suggests poor binding but is not conclusive. The authors averaged sequences with at least three values out of six and counted those with two or fewer as poor binders. Background: pairings of all heavy chain designs with three empty control strains gave a value in 1% of cases (median 2.08, 5th percentile 0.84). Values in that range, when seen in few replicates, are hard to tell from nonspecific mating. The control count says in how many pairings with the empty strains this scFv gave a signal, with their mean in brackets. Of ten entries with the parent sequence, four were seen in most replicates (averages 0.34 to 2.37), three in one and three in none, so single entries are noisy. Where one sequence has several entries in the source, the replicates are listed entry by entry, parted by semicolons. Values of this round are not directly comparable with the first-round values of the same sequences.

| # | changes | group | log10 Kd (nM) by replicate | mean log10 Kd (nM) | signal with controls |
|---|---|---|---|---|---|
| 1 | F27N L29N S53A R56H | Ctrl | ND / 3.43 / 2.17 / ND / ND / ND | 2.80 | 0/18 |
| 2 | T28V S53A A101L | Ctrl | 0.11 / 0.29 / 0.05 / 0.26 / 0.21 / 0.28 | 0.20 | 0/18 |
| 3 | T28D N30D S53A D106E | Ctrl | 0.29 / -0.08 / -0.05 / -0.08 / -0.33 / -0.04 | -0.05 | 0/18 |
| 4 | S31E S53A R100K G103D S107N | Ctrl | ND / ND / ND / ND / ND / ND | ND | 0/18 |
| 5 | F27E A101N | Ctrl | ND / 2.85 / 2.19 / 1.75 / 3.25 / 2.26 | 2.46 | 0/18 |
| 6 | S53A R56M S63D | Ctrl | 0.64 / 0.35 / 0.41 / 1.00 / 1.34 / 2.04 | 0.96 | 0/18 |
| 7 | S31M G61L R100I G103K S107T | Ctrl | ND / ND / ND / ND / ND / ND | ND | 0/18 |
| 8 | S53A S63D A101N | Ctrl | 0.56 / 0.34 / 0.67 / 0.37 / 0.35 / 0.45 | 0.46 | 0/18 |
| 9 | F27V A101P | Ctrl | ND / ND / ND / ND / ND / ND | ND | 0/18 |
| 10 | R56K G61I | Ctrl+GPLM_Gibbs | ND / ND / 0.74 / 0.85 / ND / ND; ND / ND / 2.02 / ND / ND / 2.39 | 1.50 | 0/36 |
| 11 | Y32P G61H D106C | Ctrl | ND / ND / ND / ND / ND / ND | ND | 0/18 |
| 12 | N30R R100P T104A | Ctrl | ND / ND / ND / ND / ND / ND | ND | 0/18 |
| 13 | S35H T58K F59S R100K D106K | Ctrl | ND / ND / ND / ND / ND / ND | ND | 0/18 |
| 14 | S31D A101L | Ctrl+GPLM_Gen | 0.80 / 0.67 / ND / 1.74 / 0.31 / 1.01; 0.27 / 0.45 / 0.32 / 0.12 / 0.40 / 0.25 | 0.58 | 0/36 |
| 15 | S63E K65R A101E | Ctrl | 1.32 / 1.10 / ND / 1.45 / 2.25 / 1.39 | 1.50 | 1/18 (2.57) |
| 16 | A101Y | Ctrl | ND / ND / ND / 2.00 / ND / ND | 2.00 | 1/18 (0.89) |
| 17 | T28M S31E S53A F59E Y60H G61K | Ctrl | ND / ND / ND / 2.32 / ND / ND | 2.32 | 0/18 |
| 18 | S31D A102I G103V | Ctrl | ND / ND / ND / ND / ND / ND | ND | 0/18 |
| 19 | T28E F59A A102Y | Ctrl | ND / ND / ND / ND / ND / ND | ND | 0/18 |
| 20 | L29I S31Q Y32Q F59Y R100A A101Q | Ctrl | -0.30 / -0.02 / 0.82 / -0.51 / ND / 0.78 | 0.16 | 0/18 |
| 21 | I34Y T104S | Ctrl | ND / ND / ND / ND / ND / ND | ND | 0/18 |
| 22 | R56K A101E T104I | Ctrl | ND / 3.12 / 2.51 / ND / ND / 2.85 | 2.83 | 2/18 (3.13) |
| 23 | T28Q S63K | Ctrl | ND / 1.33 / 0.88 / 1.24 / ND / ND | 1.15 | 0/18 |
| 24 | T28N S31E R56Y A101L T104I | Ctrl | ND / ND / ND / ND / ND / 2.43 | 2.43 | 0/18 |
| 25 | F59Q G61Y A101S D106E | Ctrl | ND / ND / ND / ND / ND / ND | ND | 0/18 |
| 26 | T28A A101C D106H S107T | Ctrl | ND / ND / ND / ND / ND / ND | ND | 0/18 |
| 27 | T28D G61K R100T D106K | Ctrl | ND / ND / ND / 0.54 / ND / ND | 0.54 | 0/18 |
| 28 | T28S N30E R100A A101E | Ctrl | ND / ND / 1.19 / ND / 1.94 / 0.34 | 1.16 | 0/18 |
| 29 | T58V G99R R100D A101P F105D | Ctrl | ND / ND / ND / ND / ND / ND | ND | 0/18 |
| 30 | S35Q G61S | Ctrl | ND / ND / ND / ND / ND / ND | ND | 0/18 |
| 31 | T28C G61N T104N | Ctrl | ND / ND / ND / ND / ND / ND | ND | 0/18 |
| 32 | F27T L29I K65R S107W | Ctrl | ND / ND / ND / ND / ND / ND | ND | 0/18 |
| 33 | G103L T104W | Ctrl | 1.64 / ND / ND / ND / ND / 1.44 | 1.54 | 0/18 |
| 34 | S31E R100L G103F | Ctrl | ND / ND / ND / ND / ND / ND | ND | 0/18 |
| 35 | G61Q G103D | Ctrl | ND / ND / ND / ND / ND / ND | ND | 1/18 (3.58) |
| 36 | G61M S63A A101V | Ctrl | 1.52 / ND / ND / ND / ND / ND | 1.52 | 0/18 |
| 37 | T28N G61H S63V G103W | Ctrl | ND / ND / ND / ND / ND / ND | ND | 0/18 |
| 38 | G61A R100T A102S | Ctrl | 1.29 / 2.01 / 0.66 / 1.44 / 1.24 / 1.53 | 1.36 | 0/18 |
| 39 | K65V A101P S107Y | Ctrl | ND / ND / ND / ND / ND / ND | ND | 0/18 |
| 40 | G26R | Ctrl | ND / ND / ND / ND / ND / ND | ND | 0/18 |
| 41 | T28N L29I R100D A101H S107T | Ctrl | 0.85 / 1.30 / 1.57 / 1.72 / 1.64 / 2.09 | 1.53 | 0/18 |
| 42 | L29Y S63K S107H | Ctrl | ND / ND / ND / ND / ND / ND | ND | 0/18 |
| 43 | G26R R100G G103A | Ctrl | 1.14 / 2.24 / ND / 1.42 / ND / 1.55 | 1.59 | 0/18 |

The first 3 entries again:

| changes | group | log10 Kd (nM) by replicate | mean log10 Kd (nM) | signal with controls |
|---|---|---|---|---|
| F27N L29N S53A R56H | Ctrl | ND / 3.43 / 2.17 / ND / ND / ND | 2.80 | 0/18 |
| T28V S53A A101L | Ctrl | 0.11 / 0.29 / 0.05 / 0.26 / 0.21 / 0.28 | 0.20 | 0/18 |
| T28D N30D S53A D106E | Ctrl | 0.29 / -0.08 / -0.05 / -0.08 / -0.33 / -0.04 | -0.05 | 0/18 |